Measured values: publication PMC12765074, “Mechanistic insights into enterocin C targeting the undecaprenyl phosphate recycling protein BacA” (The Journal of Biological Chemistry, 2025)

Columns and labels:
BacAef/EntC2 = BacAef/EntC2 (Enterococcus faecalis, UniProt A0ACD6TE02); assay type: binding; conditions: ITC, 20 °C
Procedure: The experiments were carried out at 20 °C.

BacAef [1] = biological target: T1, BacAef (Enterococcus faecalis, UniProt A0ACD6TE02); assay type: binding; conditions: DSC, BacAef 33 μM + peptides 66 μM, 60 °C/h, representative of triplicate
Procedure: Thermal stability of BacA protein in different mixtures of peptides was performed by DSC on a MicroCal model VP-DSC (Malvern Panalytical, Malvern, UK). BacA (33 μM) was mixed with different mixtures of peptides at twice the BacA concentration (i.e. 66 μM). Each measurement was preceded by a baseline scan with the standard buffer. Scans were performed at 1 K/min (60 °C/h) temperature ramp between 30 °C and 100 °C. The heat capacity of the buffer was subtracted from that of the protein sample before analysis. The thermodynamic parameters were determined by fitting the data to the following equation: ΔCp(T)=Kd(T)ΔHcalΔHvH/[1+Kd(T)]^2RT^2 where Kd is the equilibrium constant for a two-state process, ΔHvH the enthalpy calculated based on a two-state process and ΔHcal the measured enthalpy.

PgpB = conditions: Fluo-EntC1 100 nM, PgpB micelles, 0.1% DDM
BacAef [2] = biological target: T1, BacAef; experiment: DSS crosslinking; assay type: binding; conditions: BacAef and peptide 17 μM each, DSS 100- or 1000-fold excess, 30 min, 4 °C
Procedure: Crosslinking experiments were performed using the amine-reactive, membrane-permeable, and non-cleavable crosslinker disuccinimidyl suberate (DSS) purchased from Sigma. EntC peptides and BacA protein were mixed at equimolar concentrations (17 μM) in buffer D in the presence of an excess of DSS crosslinker (1000-fold or 100-fold) in a final reaction volume of 20 μl. The reaction was incubated for 30 min at 4°C, and any unreacted DSS was quenched with 50 mM Tris-HCl. After separation on a 12% acrylamide gel, proteins were electrotransferred onto polyvinylidene difluoride (PVDF) membrane, and BacA was detected using peroxidase-coupled anti-His tag antibody (Penta-His HRP conjugate from Qiagen, RRID: AB_3699318) by chemiluminescence detection (Western Lightning Plus-ECL, PerkinElmer) using the ChemiDoc MP system (Bio-Rad).

BacAec = BacAec (Escherichia coli, UniProt P60932); experiment: FIDA, BacAec; assay type: binding; conditions: Fluo-EntC1 100 nM, BacAec micelles, 0.1% DDM
[3] = test system: E. faecalis (V583-derivative strain, WT); assay type: cell-based, Enterococcus faecalis; conditions: 6 μl droplets on a lawn of E. faecalis, BHI 0.75% agar, overnight; representative of three independent experiments
BacAef [4] = biological target: T1, BacAef; experiment: ITC, BacAef; assay type: binding; conditions: 20 °C
BacAef [5] = biological target: T1, BacAef; experiment: Flow-Induced Dispersion Analysis (FIDA), BacAef; assay type: binding; conditions: Fluo-EntC1 100 nM, BacAef micelles 2 μM, 0.1% DDM, pH 7.4, 25 °C; average of three experiments

CC[C@H](C)[C@H](NC(=O)[C@H](CCCCN)NC(=O)[C@H](CO)NC(=O)[C@H](Cc1ccccc1)NC(=O)[C@@H](NC(=O)[C@H](CO)NC(=O)[C@@H](N)CCC(=O)O)C(C)C)C(=O)NCC(=O)N[C@@H](CC(N)=O)C(=O)N[C@@H](C)C(=O)N[C@H](C(=O)NCC(=O)N1CCC[C@H]1C(=O)N[C@@H](C)C(=O)N[C@@H](C)C(=O)N[C@@H](Cc1ccc(O)cc1)C(=O)N[C@@H](Cc1c[nH]c2ccccc12)C(=O)N[C@H](C(=O)N[C@@H](CC(C)C)C(=O)N[C@@H](CCCCN)C(=O)NCC(=O)N[C@@H](CC(C)C)C(=O)NCC(=O)N[C@@H](CC(N)=O)C(=O)N[C@@H](CCSC)C(=O)N[C@@H](CO)C(=O)N[C@@H](CC(=O)O)C(=O)N[C@H](C(=O)N[C@@H](CC(N)=O)C(=O)N[C@@H](CCC(N)=O)C(=O)N[C@@H](C)C(=O)N[C@@H](CC(=O)O)C(=O)N[C@@H](CCCNC(=N)N)C(=O)N[C@H](C(=O)N[C@@H](CC(N)=O)C(=O)N[C@@H](CCCNC(=N)N)C(=O)N[C@@H](CCCCN)C(=O)N[C@@H](CCCCN)C(=O)N[C@@H](Cc1c[nH]cn1)C(=O)O)[C@@H](C)CC)C(C)C)[C@@H](C)CC)C(C)C (single isomer, unassigned) [EntC1]
n (BacAef/EntC2; 400 μM into [BacAef/EntC2] 33 μM): 0.69 ± 0.01 | -TΔS (BacAef/EntC2; into [BacAef/EntC2]): 19.2 kcal/mol | ΔG (BacAef/EntC2; into [BacAef/EntC2]): -8.48 kcal/mol | ΔH (BacAef/EntC2; into [BacAef/EntC2]): -27.6 kcal/mol | melting temperature (Tm) of BacAef (BacAef [1]; 30-100 °C, Tris-HCl pH 7.5, 0.1% DDM, BacAef alone 66.3 °C): 72.8 °C | enthalpy of denaturation (ΔH) of BacAef (BacAef [1]; BacAef alone 26.7 kcal/mol): 45.3 kcal/mol | hydrodynamic radius (Rh) with PgpB (PgpB): no significant change | crosslinked complex band with BacAef (SDS-PAGE, western blot) (BacAef [2]): a strong and unique band | hydrodynamic radius (Rh) with BacAec (BacAec): no significant change | antibacterial activity (spot-on-lawn), E. faecalis [3]: neither peptide exhibited antibacterial activity when applied individually | -TΔS (BacAef [4]; into [BacAef] 33 μM): -3.4 kcal/mol | ΔG (BacAef [4]; into [BacAef] 33 μM): -9 kcal/mol | ΔH (BacAef [4]; into [BacAef] 33 μM): -5.4 kcal/mol | n (BacAef [4]; peptides 400 μM into [BacAef] 33 μM, pH 7.4, 0.1% DDM, at least triplicate): 0.60 ± 0.02 | hydrodynamic radius (Rh) with BacAef (BacAef [5]): 3.8 nm
